# According to publication PMC6738096 (British Journal of Cancer, 2019):
# Conditions: rats, oral doses ≤ 60 mg/kg
compound,measurement,value
CC(C)NC(=O)[C@H]1CC[C@@H](n2/c(=N/C(=O)c3ccc(F)cc3)[nH]c3ccc(CN4CCC(C(C)(C)O)CC4)cc32)CC1 [TSR-011],Effects in modified Irwin and respiratory safety study,did not exhibit any effects
